{"source": "patent US7862824B2", "about": "“Enhancement of GLP-2 activity of suppressing appetite” (1149336 Ontario, Inc., priority 2001, dated 2011)", "target": "T1, rat GLP-1 receptor (Rattus norvegicus, UniProt P32301)", "T1 construct": "expressed in transfected cells; host or cells: BHK (baby hamster kidney fibroblast) cells, stably transfected", "T1 sequence (P32301 22-463)": "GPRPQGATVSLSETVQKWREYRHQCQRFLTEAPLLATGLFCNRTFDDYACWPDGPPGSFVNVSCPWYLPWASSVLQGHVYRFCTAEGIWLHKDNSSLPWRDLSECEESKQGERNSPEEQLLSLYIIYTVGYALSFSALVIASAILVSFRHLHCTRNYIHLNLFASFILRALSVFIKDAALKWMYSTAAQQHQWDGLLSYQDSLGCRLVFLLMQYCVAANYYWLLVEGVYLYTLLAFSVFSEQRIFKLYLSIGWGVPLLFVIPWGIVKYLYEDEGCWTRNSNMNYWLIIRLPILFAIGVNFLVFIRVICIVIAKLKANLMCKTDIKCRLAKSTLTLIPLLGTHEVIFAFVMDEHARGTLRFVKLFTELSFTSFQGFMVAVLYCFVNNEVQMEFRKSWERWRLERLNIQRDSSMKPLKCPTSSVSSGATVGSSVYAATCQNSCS", "test": "cAMP accumulation in BHK cells stably expressing the rat GLP-1 receptor (RIA)", "type": "cell-based", "conditions": "BHK-GLP-1R cells", "note": "pEC50: −log10 of the molar value."}
{"substance": "Rat GLP-1 (7-36)NH2", "values": [{"measurement": "pEC50", "setting": "agonist alone", "result": 10.39}, {"measurement": "pEC50", "setting": "in the presence of 500 nM Exendin (9-39)", "result": 9.24}, {"measurement": "pEC50", "setting": "in the presence of 1000 nM Exendin (9-39)", "result": 8.37}]}
